{
  "source": "patent US7456293B2",
  "about": "“Substituted carboxylic acid derivatives for the treatment of diabetes and lipid disorders, their preparation and use” (SK Holding Co., Ltd, priority 2005, dated 2008)",
  "tested_on": "3T3-L1 adipocytes",
  "experiment": "Insulin-stimulated glucose uptake (2-deoxy-D-glucose) in differentiated 3T3-L1 adipocytes",
  "type": "cell-based",
  "details": "separate treatment: 1 μM compound alone or 100 nM insulin alone, 48 h",
  "protocol": "Adipocyte differentiation was then induced using standard protocol. […] The maintenance medium was changed every 3 days until the cells were utilized for experimentation. Glucose transport activity was measured in the presence or absence of insulin and the protocol was modified from Kletzien, R F et al. (1992) Molecular Pharmacology 41:393-398. Briefly, differentiated 3T3-L1 adipocytes were incubated with control (DMSO), insulin (100 nM) alone, the compound of Example 1 (1 μM) alone and a combination of insulin (100 nM)+the compound of Example 1 (1 μM) for 48 h. In each instance, the medium was changed twice a day. […] […] In order to determine whether there is an enantio-dependency of compound of example 1, we investigated the effect of each enantiomer and racemate on insulin-stimulated glucose uptake as described above.",
  "data": [
    {"substance": "insulin", "values": [
      {"measurement": "glucose transport", "result": "increase in glucose transport"}
    ]}
  ]
}
